# Laboratory results from patent US11752210B2, “Sensitizing composition using electromagnetic waves for thermal therapy of cancers, and cancer therapy using same” (JINIS CO., LTD., priority 2013, dated 2023).
# Assay: In vivo accumulation of metal ion in normal and tumorous tissue, ICP-MS (Test Example 5)
# Design: species or system BALB/c athymic nude mice; concentration of iron ion (ICP-MS): unit not given here
# Conditions: 1 mg/kg i.v., after 24 hr
# Protocol: In order to evaluate the accumulation of the administered metal ion in tumorous tissue through in vivo animal testing, tumor xenograft animal models were manufactured as follows. Specifically, a lung cancer cell line NCI-H460-luc2 (Califer Life Sciences) was cultured, and 5×10^6 cells were subcutaneously injected into 6- to 8-week-old female BALB/c athymic nude mice (Damul Science), and the mice were bred for about 10 days so as to grow tumorous tissue to a size of 100 mm^3 or more, yielding the tumor xenograft animal models.
# Into the established tumor xenograft BALB/c athymic nude mice, each of the metal ion aqueous solutions of Test Example 1, that is, magnesium sucrose, iron sucrose, and iron dextran, was diluted to a concentration of 0.2 mg/ml and then intravenously injected in an amount of 0.1 ml so as to reach a dose of 1 mg/kg. After 24 hr, in order to carry out inductively coupled plasma mass spectrometry (ICP-MS), 1 g of each tissue was ground using a tissue grinder in an ice bath, and 1 ml of the ground solution was dried at −60° C. in a vacuum of 7 μmHg for 24 hr. The dried powder was added with 2 ml of 6N HCl, placed in a sealed glass reactor, and cultured in an incubator at 55° C. After 12 hr or longer, each sample was mixed in a vortex and then centrifuged at 1,000 rpm for 15 min, and the supernatant was dried with nitrogen gas, added with 1 ml of 0.01N HCl, mixed in a vortex, and then centrifuged at 1,000 rpm for 15 min. The supernatant was recovered, and the concentrations of the metal ions in the normal tissue and the tumorous tissue were measured through ICP-MS (Varian 800-MS, Palo Alto, US).
substance,measurement,setting,value
Iron dextran,Fold Increase of iron ion vs saline,Brain,1.62
same,concentration of iron ion (ICP-MS),Brain,36.4 ± 3.4
same,Fold Increase of iron ion vs saline,Heart,2.86
same,concentration of iron ion (ICP-MS),Heart,92.1 ± 5.8
same,Fold Increase of iron ion vs saline,Kidney,1.05
same,concentration of iron ion (ICP-MS),Kidney,59.8 ± 15.6
same,Fold Increase of iron ion vs saline,Liver,1.55
same,concentration of iron ion (ICP-MS),Liver,115.5 ± 17.3
same,Fold Increase of iron ion vs saline,Muscle,2.23
same,concentration of iron ion (ICP-MS),Muscle,65.7 ± 30.4
same,Fold Increase of iron ion vs saline,Stomach,1.95
same,concentration of iron ion (ICP-MS),Stomach,54.1 ± 12.8
same,concentration of iron ion (ICP-MS),Tumor,46.8 ± 6.6
same,Fold Increase of iron ion vs saline,"Tumor, 1 mg/kg",≥ 3.4
same,Fold Increase of iron ion vs saline,"Tumor, listed as Fe-Dextran, 1 mg/kg",3.47
